Consider 59 compounds from PubChem BioAssay AID540253 (National Center for Advancing Translational Sciences (NCATS), 2011).

Each structure is given as a SMILES string. Only a part is listed here, and it is no random draw. Records with an inconclusive call do not appear. Active and inactive are the calls of the source. Calls follow the shape of the full dose curve.

In this assay the target is Snurportin-1 (Homo sapiens) + GTP-binding nuclear protein Ran (Homo sapiens) + Importin subunit beta-1 (Homo sapiens) (UniProt O95149+P62826+Q14974). The assay is described as follows: qHTS Assay for Inhibitors of RanGTP induced Rango (Ran-regulated importin-beta cargo) - Importin beta complex dissociation. Also: % of control where 0% means no effect; nearly all actives have a fitted effect of over 45% in size. Particulars: Biochemical FRET Rango-importin beta; at 46.1 µM (top of the series). (qHTS replaces the single test concentration by a dilution series.)
With `Cc1ccc(C(=O)OC2CN3CCC2CC3)cc1` (centres undefined), the activity change, negative = inhibition is inactive: 20.5%.

With `O=C(/C=C/c1ccccc1)OC1CN2CCC1CC2` (centres undefined), the activity change, negative = inhibition was inactive: 10.3%.

On to `CCCC1OP(=O)(Nc2ccccc2)OCC1CC` (centres undefined), for which the activity change, negative = inhibition was inactive: 17.4%.

`CN(C)C1(CNC(=O)c2ccc(S(C)(=O)=O)cc2)CCCCC1`: the activity change, negative = inhibition was inactive: -3.63%.

`CC1=C2N=C(C=C3N=C(C(C)=C4[N-][C@@](C)([C@@H]5N=C1[C@](C)(CCC(=O)NC[C@@H](C)OP(=O)([O-])O[C@H]1[C@@H](O)[C@@H](n6cnc7cc(C)c(C)cc76)O[C@@H]1CO)[C@H]5CC(N)=O)[C@@](C)(CC(N)=O)[C@@H]4CCC(N)=O)[C@@](C)(CC(N)=O)[C@@H]3CCC(N)=O)C(C)(C)[C@@H]2CCC(N)=O.[C-]#N.[Co+3]`: the activity change, negative = inhibition is inactive: -17.9%.

Turning to `O=[N+]([O-])c1cc([N+](=O)[O-])c(Nc2nnnn2CCO)c([N+](=O)[O-])c1`, the activity change, negative = inhibition was inactive: 30.5%.

In the case of `COc1ccccc1OP(C)(=O)Nc1c(C)cccc1C` (centres undefined), the activity change, negative = inhibition is inactive: 1.79%.

On to `CN1CCCCC1COC(=O)C1(O)c2ccccc2CCc2ccccc21` (centres undefined), for which the activity change, negative = inhibition was inactive: 0.786%.

Turning to `O=P1(Nc2ncccn2)COc2ccccc2OC1`, the activity change, negative = inhibition was inactive: -4.48%.

`Cc1ccc(OCC(=O)OC2CN3CCC2CC3)cc1` (centres undefined): the activity change, negative = inhibition is inactive: 13.8%.

Consider `O=[As](O)(c1cccs1)c1cccs1`, for which the activity change, negative = inhibition was inactive: -0.236%.

Regarding `O=P1(Nc2ccc(Br)cn2)COc2ccccc2OC1`, the activity change, negative = inhibition was inactive: 1.42%.

Turning to `NS(=O)(=O)c1cccc(NC(=O)COC(=O)C(O)(c2ccccc2)c2ccccc2)c1`, the activity change, negative = inhibition was inactive: 19.2%.

On to `CCCOc1ccc(NP(C)(=O)Oc2ccc(Cl)cc2)cc1` (centres undefined), for which the activity change, negative = inhibition is inactive: -5.75%.

As for `Nc1cccc([As](=O)(O)c2ccccc2)c1`, the activity change, negative = inhibition was inactive: -15.4%.

In the case of `CP(=O)(Nc1ccc(SC(F)(F)F)cc1)Oc1ccccc1` (centres undefined), the activity change, negative = inhibition was inactive: 11.8%.

As for `CCOP(=O)(Nc1ccc(C)cn1)OCC`, the activity change, negative = inhibition is inactive: 11.7%.

Turning to `CN(CCCl)Cc1cc(Cl)c(NC2=NCCN2)c(Cl)c1`, the activity change, negative = inhibition is inactive: 4.72%.

Regarding `O=P1(Nc2ccccn2)COc2ccccc2OC1`, the activity change, negative = inhibition was inactive: -14.7%.

Consider `CCC1=CC2Cc3nc4ccc(Cl)cc4c(N)c3C(C1)C2` (centres undefined), for which the activity change, negative = inhibition is inactive: -13.2%.

As for `O=[N+]([O-])c1cc([N+](=O)[O-])c(-n2nnc3ccccc32)c([N+](=O)[O-])c1`, the activity change, negative = inhibition is inactive: 21.5%.

As to `CCOP(=O)(NC(=NC(C)c1ccccc1)NC(C)c1ccccc1)OCC` (centres undefined), the activity change, negative = inhibition is inactive: -0.961%.

Turning to `Clc1n[nH]nc1-c1nn[nH][15n]1`, the activity change, negative = inhibition is inactive: 0.656%.

For the compound `CC(C)(C)C(=O)NC(Sc1ncccn1)C(Cl)(Cl)Cl` (centres undefined), the activity change, negative = inhibition is inactive: 15.7%.

`O=[N+]([O-])c1cc([N+](=O)[O-])c(-c2cnn(-c3ccccc3)c2)c([N+](=O)[O-])c1`: the activity change, negative = inhibition was inactive: 9.43%.

`CC1(CBr)Cn2c(nc3ccccc3c2=O)S1` (centres undefined): the activity change, negative = inhibition was inactive: 7.48%.

In the case of `Cc1nc2ccc3ccccc3c2s1.O=[N+]([O-])c1cc([N+](=O)[O-])c(O)c([N+](=O)[O-])c1`, the activity change, negative = inhibition is inactive: 0.386%.

Turning to `CC(C)/C=N\N=C(\N)N[N+](=O)[O-]`, the activity change, negative = inhibition was inactive: -10.5%.

On to `CN(C(=O)Cc1ccc(Cl)c(Cl)c1)[C@@H]1CCCC[C@H]1N1CCCC1`, for which the activity change, negative = inhibition is inactive: 22.2%.

For the compound `O=[As](O)(O)c1cccnc1`, the activity change, negative = inhibition is inactive: 12.9%.

As to `COc1cc(C(=O)NCC2(N3CCOCC3)CCCCC2)cc(Cl)c1OC(C)C`, the activity change, negative = inhibition was inactive: 1.68%.

Take `CS(=O)(=O)c1ccc(Cl)c(NC(=O)COC(=O)C(O)(c2ccccc2)c2ccccc2)c1`: the activity change, negative = inhibition is inactive: -1.76%.

Turning to `O=C(OC1CN2CCC1CC2)c1ccc(Cl)cc1` (centres undefined), the activity change, negative = inhibition was inactive: -17.1%.

With `CCOC(=O)c1ccc(NP(C)(=O)Oc2cc(C)cc(C)c2)cc1` (centres undefined), the activity change, negative = inhibition was inactive: 12%.

With `Cc1cccc(OCC(=O)OC2CN3CCC2CC3)c1` (centres undefined), the activity change, negative = inhibition is inactive: 1.7%.

Consider `O=[As](O)(c1cccc(O)c1)c1cccc(O)c1`, for which the activity change, negative = inhibition is inactive: -8.67%.

For `Cc1cc(C)cc(OP(C)(=O)Nc2ccc(C)cc2C)c1` (centres undefined), the activity change, negative = inhibition is inactive: 5.91%.

Consider `Cc1ccc(C)c(NP(C)(=O)Oc2ccccc2)c1` (centres undefined), for which the activity change, negative = inhibition is inactive: -15.7%.

Turning to `CCCOP(=S)(Nc1nc(N)cc(=O)[nH]1)OCCC`, the activity change, negative = inhibition is inactive: -11.6%.

For the compound `Cc1cc(C)cc(OP(C)(=O)Nc2ccccn2)c1` (centres undefined), the activity change, negative = inhibition was inactive: 6.49%.

With `CP(=O)(Nc1cccc(Br)c1)Oc1ccccc1` (centres undefined), the activity change, negative = inhibition was inactive: -3.97%.

Regarding `Cc1ccc(NCCc2c([N+](=O)[O-])cc([N+](=O)[O-])cc2[N+](=O)[O-])cc1`, the activity change, negative = inhibition was inactive: 0.0189%.

As to `Nc1cccc2c([As](=O)(O)O)cccc12`, the activity change, negative = inhibition is inactive: -4%.

In the case of `CCOP(=O)(Nc1cccc2ccccc12)OCC`, the activity change, negative = inhibition is inactive: 5.88%.

In the case of `CCOP1(=S)c2c(C)nn(CCC#N)c2N=C(c2ccccc2F)N1C` (centres undefined), the activity change, negative = inhibition was inactive: -10.4%.

Regarding `O=P(Nc1nccs1)(Oc1ccccc1)Oc1ccccc1`, the activity change, negative = inhibition was inactive: -4.64%.

As for `O=P(Nc1nccs1)(c1ccccc1)c1nc2ccccc2s1` (centres undefined), the activity change, negative = inhibition was inactive: -10.7%.

For `Nc1ccccc1[As](=O)(O)c1ccccc1`, the activity change, negative = inhibition was inactive: 1%.

For the compound `O=C(O)COc1ccc([As](=O)(O)O)cc1[N+](=O)[O-]`, the activity change, negative = inhibition is inactive: 10.4%.

With `NC(=O)Nc1ccc([As](=O)(O)O)cc1`, the activity change, negative = inhibition is inactive: 1.26%.

As to `O=[N+]([O-])c1ccc2c(c1)nnn2O`, the activity change, negative = inhibition was inactive: -2.24%.

As for `CN(C)C(=O)c1cc([N+](=O)[O-])cc2c1-c1c(cc([N+](=O)[O-])cc1[N+](=O)[O-])C2=O`, the activity change, negative = inhibition is inactive: 11.1%.

In the case of `CC1=NCCc2c1[nH]c1ccccc21.O=[N+]([O-])c1cc([N+](=O)[O-])c(O)c([N+](=O)[O-])c1`, the activity change, negative = inhibition was inactive: -4.12%.

Consider `CN(C(=O)Cc1ccc(Cl)c(Cl)c1)[C@H]1CC[C@@]2(CCCO2)C[C@@H]1N1CCCC1`, for which the activity change, negative = inhibition is inactive: -5.85%.

As to `N#CCCN(C(=O)COC(=O)C(O)(c1ccccc1)c1ccccc1)c1ccc(F)cc1`, the activity change, negative = inhibition was inactive: -18.7%.

With `CCOP1(=S)c2c(C)nn(CCC#N)c2N=C(c2ccc(F)cc2)N1C` (centres undefined), the activity change, negative = inhibition is inactive: 8.75%.

For `CN(C(=O)Cc1ccccc1)[C@@H]1CC[C@]2(CCCO2)C[C@H]1N1CCCC1`, the activity change, negative = inhibition was inactive: 0.0673%.

Take `CCNC(=S)/N=C(\N)N[N+](=O)[O-]`: the activity change, negative = inhibition is inactive: 7.4%.

For `O=C(NC1CCS(=O)(=O)C1)NP(=S)(Oc1ccccc1)Oc1ccccc1` (centres undefined), the activity change, negative = inhibition is inactive: 7.47%.
